Assay results taken from patent publication US9845295B2, “Triphenylethylene compounds and uses thereof” (Purdue Research Foundation, priority 2015, dated 2017).

Amino acid sequences for entries named in this document (tags omitted). A change or cut given only in a name is not applied to a line headed by its entry.
UniProt P11511: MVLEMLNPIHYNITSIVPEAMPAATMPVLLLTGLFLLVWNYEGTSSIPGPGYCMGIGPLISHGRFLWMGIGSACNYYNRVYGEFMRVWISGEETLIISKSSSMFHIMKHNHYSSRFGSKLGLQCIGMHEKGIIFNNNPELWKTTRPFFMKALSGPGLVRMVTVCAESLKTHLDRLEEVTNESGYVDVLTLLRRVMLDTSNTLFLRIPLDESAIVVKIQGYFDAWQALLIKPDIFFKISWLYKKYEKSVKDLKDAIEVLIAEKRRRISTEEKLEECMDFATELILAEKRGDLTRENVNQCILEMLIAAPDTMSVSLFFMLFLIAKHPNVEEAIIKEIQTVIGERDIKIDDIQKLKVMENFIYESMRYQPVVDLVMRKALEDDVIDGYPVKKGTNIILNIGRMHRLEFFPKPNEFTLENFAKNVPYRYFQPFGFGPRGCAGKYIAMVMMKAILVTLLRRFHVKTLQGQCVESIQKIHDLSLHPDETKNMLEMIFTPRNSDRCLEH

Target: T1, recombinant human aromatase (CYP19) (Homo sapiens, UniProt P11511)
T1 construct: purchased BD Biosciences (San Jose, Calif.)
Assay: Inhibition of recombinant human aromatase (CYP19) by microsomal incubations (MFC fluorometric substrate)
Assay type: biochemical
Settings: vs compound 7

Q: How did the “fold improvement/increase in aromatase inhibitory activity compared with 7” value turn out when `CC/C(=C(\c1ccc(O)cc1)c1ccc(OCCN)cc1)c1ccccc1` [(E,Z)-norendoxifen, reference compound] was run?
A: The value was > 240 fold.
